In patent US20090298073A1, “Kidney Toxicity Biomarkers” (priority 2006, published 2009) one finds BUN and Creatinine data, which are given here for 1 substance.

Data set [1] concerns male rats. Kind of data set: BUN (blood urea nitrogen) in rats treated with kidney toxicants.
Data set [2] concerns male rats. Kind of data set: Blood creatinine in rats treated with kidney toxicants.
Setting [3] is: gentamicin 20 mg/Kg/Day, Day 15.
[4] abbreviates: gentamicin 80 mg/Kg/Day, Day 15.
[5] abbreviates: gentamicin 240 mg/Kg/Day, Day 3.
Where [6] appears, read: gentamicin 240 mg/Kg/Day, Day 9.

For Gentamicin, the BUN is 14.8 µg/mL with male rats [1] (gentamicin 20 mg/Kg/Day, Day 3); 15.2 µg/mL in the data set with male rats [1] (gentamicin 20 mg/Kg/Day, Day 9); 15.4 µg/mL with male rats [1] (setting [3]); 14.2 µg/mL in the data set on male rats [1] (gentamicin 80 mg/Kg/Day, Day 3); 15.6 µg/mL in the data set on male rats [1] (gentamicin 80 mg/Kg/Day, Day 9); 18.6 µg/mL with male rats [1] (setting [4]). The BUN in the data set with male rats [1] (setting [5]) is 18.4 µg/mL; in the data set with male rats [1] (setting [6]), 100 µg/mL. The Creatinine in the data set with male rats [2] (gentamicin 20 mg/Kg/Day, Day 3) amounted to 0.4 mg/dL; in the data set with male rats [2] (gentamicin 20 mg/Kg/Day, Day 9), 0.4 mg/dL; in the data set with male rats [2] (setting [3]), 0.42 mg/dL; with male rats [2] (gentamicin 80 mg/Kg/Day, Day 3), 0.4 mg/dL; in the data set with male rats [2] (gentamicin 80 mg/Kg/Day, Day 9), 0.5 mg/dL; in the data set on male rats [2] (setting [4]), 0.54 mg/dL. In addition, the Creatinine with male rats [2] (setting [5]) worked out at 0.42 mg/dL; with male rats [2] (setting [6]), 2.65 mg/dL.
